In patent US4242354A, “2-(2-Thenolythio)-propionylglycine: method for its preparation and pharmaceutical formulations containing said compound” (Mediolanum Farmaceutici S.r.L., priority 1978, dated 1980):

How the values were obtained:
mouse [1] = test system: mouse
in vivo [2] = conditions: rat
Protocol: (§1) Hundred-and-forty (140) albino rats, Sprague-Dawley strain, bodyweight 120-135 grams, subdivided into groups each consisting of 5 animals, were used for the investigation. […] For each single compound the LD 50 was assessed according to Litchfield and Wilcoxon on the basis of the mortality rate encountered in the 7 days following the treatment.

rat = test: in vivo
Protocol: as §1

mouse [3] = conditions: in vivo, po
in vivo [4] = conditions: mouse, po
in vivo [5] = conditions: mouse, iv
[6] = test system: SO2-induced experimental bronchitis; test: Experimental bronchitis in the rat (SO2 inhalation); assay type: in vivo, male rats, Sprague-Dawley strain; conditions: 50 mg/kg, control 4.00 ± 0.26
Protocol: The mucolytic activity of (I) was assessed in the rat subjected to a bronchopulmonary impairment induced by a SO2 inhalation.
For the purpose 40 male rats, Sprague-Dawley strain, 320-370 grams, subdivided into 4 groups each consisting of 10 elements were subjected to the following treatments:
Group 1: poisoning treatment (SO2)
Group 2: poisoning with SO2, and aerosol treatment with (I).
Group 3: poisoning with SO2, and aerosol treatment with (I).
Group 4: poisoning with SO2, and subcutaneous treatment with (I).
In any case the dose of (I) was 50 mg/kg.
For the poisoning-induction the animals were subjected to a constant air flow containing SO2 at a 0.03 percent concentration. The poisoning treatment was given for 15 days subjecting the rats, 2 hours daily, to an inhalation of SO2 for 15-minute periods. Concurrently the protective treatment with (I) was carried out in the groups in which it had been scheduled. The animals were killed on the day following the last inhalation.
The lungs were withdrawn together with the trachea, fixed in 10 percent formalin, and subjected to a macroscopic examination, dipped thereafter into the same fixing fluid for 24 hours, and thereafter for one hour in absolute ethanol.
The bronchial tree was thereafter evidenced with alcian blue; moreover, a subsequent staining was made with the Schiff's reagent in order to evidence the muchopolysaccharides. […]

CC(SC(=O)c1cccs1)C(=O)NCC(=O)O (stereo not shown) [compound (I), 2-(2-thenoylthio)-propionylglycine]
No. Animals Dead (mouse [1]; in vivo, iv, 500 mg/kg): 0
No. Animals Dead (mouse [1]; in vivo, iv, 750 mg/kg): 0
No. Animals Dead (mouse [1]; in vivo, iv, 1000 mg/kg): 0
LD50 at 168 h (in vivo [2]; in vivo, im): 1800 mg/kg
mortality at 168 h (in vivo [2]; in vivo, im, 1250 mg/kg): 0%
mortality at 168 h (in vivo [2]; in vivo, im, 1500 mg/kg): 0%
mortality at 168 h (in vivo [2]; in vivo, im, 1750 mg/kg): 40%
mortality at 168 h (in vivo [2]; in vivo, im, 2000 mg/kg): 100%
mortality at 168 h (in vivo [2]; po, 1500 mg/kg): 0%
mortality at 168 h (in vivo [2]; po, 2000 mg/kg): 0%
mortality at 168 h (in vivo [2]; po, 2500 mg/kg): 0%
No. Animals Dead (rat; in vivo, 1250 mg/kg): 0
No. Animals Dead (rat; in vivo, 1750 mg/kg): 4
No. Animals Dead (rat; in vivo, 2000 mg/kg): 10
No. Animals Dead (rat; po, 1500 mg/kg): 0
No. Animals Dead (rat; po, 2000 mg/kg): 0
No. Animals Dead (mouse [3]; 1500 mg/kg): 0
No. Animals Dead (mouse [3]; 2000 mg/kg): 0
mortality (in vivo [4]; 1500 mg/kg): 0%
mortality (in vivo [4]; 2000 mg/kg): 0%
mortality (in vivo [4]; 2500 mg/kg): 0%
mortality (in vivo [5]; 500 mg/kg): 0%
mortality (in vivo [5]; 750 mg/kg): 0%
mortality (in vivo [5]; 1000 mg/kg): 0%
mortality (in vivo [5]; 1250 mg/kg): 0%
Macroscopic Examination score (E, mean ± standard error) ([6]; group 2, aerosol): 1.25 ± 0.31
Macroscopic Examination score (E, mean ± standard error) ([6]; group 4, subcutaneous): 1.25 ± 0.36

CC(S)C(=O)NCC(=O)O (stereo not shown) [compound (II), 2-mercaptopropionylglycine, reference compound]
No. Animals Dead (mouse [1]; intravenous, 1250 mg/kg (highest dose), 10 animals per dose): 3
mortality at 168 h (in vivo [2]; in vivo, im, 1250 mg/kg): 0%
No. Animals Dead (rat; intramuscular, 1250 mg/kg, 10 animals per dose): 0
mortality (in vivo [5]; 1250 mg/kg): 30%

Where two headings read alike, the source gives them in different places.
